Measured values published in ChEMBL document CHEMBL5316269, “Rational Design of a New RXR Agonist Scaffold Enabling Single-Subtype Preference for RXRα, RXRβ, and RXRγ” (J Med Chem, 2023).

The chains behind the UniProt entries cited, without tags or fusion partners. Where a name states a change or a piece, a line headed by the entry shows the natural chain unless it says otherwise.
UniProt P55055, whole entry: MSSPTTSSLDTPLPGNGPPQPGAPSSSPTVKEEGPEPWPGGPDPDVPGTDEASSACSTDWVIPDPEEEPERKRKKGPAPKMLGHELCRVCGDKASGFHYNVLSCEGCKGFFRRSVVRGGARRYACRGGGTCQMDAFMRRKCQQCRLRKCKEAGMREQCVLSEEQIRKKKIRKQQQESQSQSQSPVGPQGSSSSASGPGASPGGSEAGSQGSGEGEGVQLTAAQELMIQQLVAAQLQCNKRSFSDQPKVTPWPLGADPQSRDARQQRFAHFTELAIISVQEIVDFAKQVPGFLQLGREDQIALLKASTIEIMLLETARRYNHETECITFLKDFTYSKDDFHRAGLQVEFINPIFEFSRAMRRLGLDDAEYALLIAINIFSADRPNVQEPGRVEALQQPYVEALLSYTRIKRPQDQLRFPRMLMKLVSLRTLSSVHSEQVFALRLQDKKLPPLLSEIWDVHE
UniProt P37231: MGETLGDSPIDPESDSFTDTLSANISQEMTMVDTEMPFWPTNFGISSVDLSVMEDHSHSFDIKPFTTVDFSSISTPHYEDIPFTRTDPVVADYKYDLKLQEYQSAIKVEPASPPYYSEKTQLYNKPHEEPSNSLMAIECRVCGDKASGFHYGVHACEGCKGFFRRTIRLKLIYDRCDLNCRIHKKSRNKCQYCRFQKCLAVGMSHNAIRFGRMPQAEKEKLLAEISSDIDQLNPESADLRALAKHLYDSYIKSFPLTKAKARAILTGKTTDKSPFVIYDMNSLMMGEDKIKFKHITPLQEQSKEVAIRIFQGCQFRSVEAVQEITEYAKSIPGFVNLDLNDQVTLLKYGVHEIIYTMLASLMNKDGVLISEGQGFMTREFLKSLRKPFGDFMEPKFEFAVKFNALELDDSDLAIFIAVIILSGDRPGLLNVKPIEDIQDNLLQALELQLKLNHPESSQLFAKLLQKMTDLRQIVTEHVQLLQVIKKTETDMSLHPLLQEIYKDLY

Assays:
[1] = target: Oxysterols receptor LXR-beta (Homo sapiens) (UniProt P55055); test: Agonist activity at human GAL4-fused LXRbeta LBD expressed in human HEK293T cells cotransfected with pFR-Luc and pRL-SV40 assessed as increase in luciferase activity at 30 uM incubated for 16 hrs by Dual-Glo luciferase assay relative to control; format: cell-based
[2] = target: T1, Thyroid hormone receptor alpha (Homo sapiens) (UniProt P10827); test: Agonist activity at human GAL4-fused THRalpha LBD expressed in human HEK293T cells cotransfected with pFR-Luc and pRL-SV40 assessed as increase in luciferase activity at 30 uM incubated for 16 hrs by Dual-Glo luciferase assay relative to control; format: cell-based
T1 sequence (whole entry): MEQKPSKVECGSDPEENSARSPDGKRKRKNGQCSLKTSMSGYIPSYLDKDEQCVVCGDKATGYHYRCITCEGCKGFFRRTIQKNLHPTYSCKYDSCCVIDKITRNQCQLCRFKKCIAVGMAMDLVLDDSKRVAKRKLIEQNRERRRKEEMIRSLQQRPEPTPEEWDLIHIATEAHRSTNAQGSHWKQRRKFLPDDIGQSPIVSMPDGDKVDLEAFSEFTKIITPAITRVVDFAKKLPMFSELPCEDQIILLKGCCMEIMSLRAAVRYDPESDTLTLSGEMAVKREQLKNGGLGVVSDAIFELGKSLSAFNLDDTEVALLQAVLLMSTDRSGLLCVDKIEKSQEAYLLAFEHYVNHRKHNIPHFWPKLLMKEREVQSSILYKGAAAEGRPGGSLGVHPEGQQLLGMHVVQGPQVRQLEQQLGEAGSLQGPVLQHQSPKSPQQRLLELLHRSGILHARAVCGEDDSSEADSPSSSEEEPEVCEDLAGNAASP

[3] = target: Peroxisome proliferator-activated receptor gamma (Homo sapiens) (UniProt P37231); test: Agonist activity at human GAL4-fused PPARgamma LBD expressed in human HEK293T cells cotransfected with pFR-Luc and pRL-SV40 assessed as increase in luciferase activity at 30 uM incubated for 16 hrs by Dual-Glo luciferase assay relative to control; format: cell-based
[4] = target: T2, Peroxisome proliferator-activated receptor delta (Homo sapiens) (UniProt Q03181); test: Agonist activity at human GAL4-fused PPARdelta LBD expressed in human HEK293T cells cotransfected with pFR-Luc and pRL-SV40 assessed as increase in luciferase activity at 30 uM incubated for 16 hrs by Dual-Glo luciferase assay relative to control; format: cell-based
T2 sequence (whole entry): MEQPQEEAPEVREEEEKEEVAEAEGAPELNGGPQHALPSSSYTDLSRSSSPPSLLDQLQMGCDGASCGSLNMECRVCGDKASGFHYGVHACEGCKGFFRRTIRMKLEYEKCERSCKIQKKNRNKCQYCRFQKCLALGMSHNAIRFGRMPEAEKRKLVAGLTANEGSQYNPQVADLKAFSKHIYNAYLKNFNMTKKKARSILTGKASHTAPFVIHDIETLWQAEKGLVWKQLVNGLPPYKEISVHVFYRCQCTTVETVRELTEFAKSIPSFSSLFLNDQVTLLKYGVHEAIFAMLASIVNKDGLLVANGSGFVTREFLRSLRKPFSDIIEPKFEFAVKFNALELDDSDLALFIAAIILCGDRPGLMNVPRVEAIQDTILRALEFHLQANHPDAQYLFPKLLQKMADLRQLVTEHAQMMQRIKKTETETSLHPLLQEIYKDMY

[5] = target: T1, Thyroid hormone receptor alpha (Homo sapiens); test: Agonist activity at human GAL4-fused THRalpha LBD expressed in human HEK293T cells cotransfected with pFR-Luc and pRL-SV40 assessed as increase in luciferase activity at 1 uM incubated for 16 hrs by Dual-Glo luciferase assay relative to control; format: cell-based
[6] = target: T2, Peroxisome proliferator-activated receptor delta (Homo sapiens); test: Agonist activity at human GAL4-fused PPARdelta LBD expressed in human HEK293T cells cotransfected with pFR-Luc and pRL-SV40 assessed as increase in luciferase activity at 1 uM incubated for 16 hrs by Dual-Glo luciferase assay relative to control; format: cell-based
[7] = target: T3, Peroxisome proliferator-activated receptor alpha (Homo sapiens) (UniProt Q07869); test: Agonist activity at human GAL4-fused PPARalpha LBD expressed in human HEK293T cells cotransfected with pFR-Luc and pRL-SV40 assessed as increase in luciferase activity at 1 uM incubated for 16 hrs by Dual-Glo luciferase assay relative to control; format: cell-based
T3 sequence (whole entry): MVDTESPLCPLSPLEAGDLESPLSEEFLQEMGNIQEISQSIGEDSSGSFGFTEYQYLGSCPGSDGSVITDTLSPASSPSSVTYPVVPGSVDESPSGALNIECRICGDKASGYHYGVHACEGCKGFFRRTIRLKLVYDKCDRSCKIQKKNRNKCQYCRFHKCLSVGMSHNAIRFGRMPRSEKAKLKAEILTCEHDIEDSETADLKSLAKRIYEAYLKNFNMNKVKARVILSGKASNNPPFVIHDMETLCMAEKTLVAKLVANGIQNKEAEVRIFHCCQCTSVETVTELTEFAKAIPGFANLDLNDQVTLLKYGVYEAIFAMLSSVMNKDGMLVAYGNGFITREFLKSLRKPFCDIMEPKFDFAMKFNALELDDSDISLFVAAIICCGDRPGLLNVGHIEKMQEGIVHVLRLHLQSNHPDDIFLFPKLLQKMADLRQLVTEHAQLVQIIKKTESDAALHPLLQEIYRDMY

[8] = target: T4, Retinoic acid receptor RXR-alpha (Homo sapiens) (UniProt P19793); test: Agonist activity at human RARalpha in human Adipose tissue derived mesenchymal stem cells assessed as increase in adipogenesis at 1 uM incubated for 13 days with media exchanged every 48-72 hrs by Oil-red O staining based analysis; settings: Adipose tissue derived mesenchymal stem cell, time 13.0 day
T4 sequence (whole entry): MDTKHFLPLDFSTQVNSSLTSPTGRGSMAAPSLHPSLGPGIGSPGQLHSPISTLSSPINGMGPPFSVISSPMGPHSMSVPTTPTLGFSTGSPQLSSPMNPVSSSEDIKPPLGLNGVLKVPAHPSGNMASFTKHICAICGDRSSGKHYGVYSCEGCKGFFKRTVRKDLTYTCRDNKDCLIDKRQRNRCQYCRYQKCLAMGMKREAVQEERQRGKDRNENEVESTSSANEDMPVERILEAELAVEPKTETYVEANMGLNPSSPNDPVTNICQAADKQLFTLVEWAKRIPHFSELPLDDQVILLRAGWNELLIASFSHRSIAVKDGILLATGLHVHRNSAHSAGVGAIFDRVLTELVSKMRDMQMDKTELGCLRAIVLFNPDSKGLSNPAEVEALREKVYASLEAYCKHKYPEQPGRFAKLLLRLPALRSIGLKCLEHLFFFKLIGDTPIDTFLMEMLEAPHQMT

Compound | Activity [1] | Activity [2] | Activity [3] | Activity [4] | Activity [5] | Activity [6] | Activity [7] | Activity [8]
Cc1ccc(OCc2ccc(CCC(=O)O)c(F)c2)c2c1CCC2 | 2% | 1% | 2% | 2% | – | – | – | –
Cc1cc(COc2ccc(C)c3c2CCC3)ccc1CCC(=O)O | – | – | – | – | 1% | 2% | 3% | inactive
O=C(O)Cc1cccc(COc2cccc3c2CCC3)c1 | 2% | 1% | 14% | 9% | – | – | – | –

Activity calls are given as the source filed them. The calls are words filed in the database; no cut-off is given here.
